For assay [1], the target named is Delta-type opioid receptor (Homo sapiens, UniProt P41143).
Assay [2] has as its target Kappa-type opioid receptor (Cavia porcellus, UniProt P41144).
Assay [3] deals with Mu-type opioid receptor (Cavia porcellus, UniProt P97266). Kind of assay: Binding affinity of compound was determined against Opioid receptor mu 1 from native receptor in guinea pig.
Assay [4] concerns the target Mu-type opioid receptor (Homo sapiens, UniProt P35372).

Sequences of proteins named here, by UniProt entry; tags and fusion partners are left off. A change or cut given only in a name is not applied to a line headed by its entry.
UniProt P41143, whole entry, looked up: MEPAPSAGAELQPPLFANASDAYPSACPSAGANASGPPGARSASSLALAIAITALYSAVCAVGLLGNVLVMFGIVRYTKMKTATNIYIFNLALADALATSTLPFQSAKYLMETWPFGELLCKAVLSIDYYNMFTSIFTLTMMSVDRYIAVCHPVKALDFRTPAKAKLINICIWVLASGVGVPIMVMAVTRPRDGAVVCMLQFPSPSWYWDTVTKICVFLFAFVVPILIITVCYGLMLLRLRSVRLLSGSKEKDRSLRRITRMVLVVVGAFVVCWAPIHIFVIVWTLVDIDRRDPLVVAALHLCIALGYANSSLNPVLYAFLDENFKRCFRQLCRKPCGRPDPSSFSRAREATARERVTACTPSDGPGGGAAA
UniProt P41144: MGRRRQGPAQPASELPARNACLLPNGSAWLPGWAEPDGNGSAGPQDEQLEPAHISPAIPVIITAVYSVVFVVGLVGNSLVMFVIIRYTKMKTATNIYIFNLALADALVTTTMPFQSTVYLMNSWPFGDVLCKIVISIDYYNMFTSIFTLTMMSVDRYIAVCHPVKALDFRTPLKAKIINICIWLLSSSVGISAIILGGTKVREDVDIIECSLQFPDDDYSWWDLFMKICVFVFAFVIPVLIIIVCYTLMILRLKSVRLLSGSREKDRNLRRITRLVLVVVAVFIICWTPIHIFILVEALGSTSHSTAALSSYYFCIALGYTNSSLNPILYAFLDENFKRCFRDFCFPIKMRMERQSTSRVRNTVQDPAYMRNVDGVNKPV
UniProt P97266, whole entry, looked up: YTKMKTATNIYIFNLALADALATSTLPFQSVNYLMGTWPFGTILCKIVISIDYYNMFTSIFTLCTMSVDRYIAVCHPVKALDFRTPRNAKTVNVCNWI
UniProt P35372, whole entry, looked up: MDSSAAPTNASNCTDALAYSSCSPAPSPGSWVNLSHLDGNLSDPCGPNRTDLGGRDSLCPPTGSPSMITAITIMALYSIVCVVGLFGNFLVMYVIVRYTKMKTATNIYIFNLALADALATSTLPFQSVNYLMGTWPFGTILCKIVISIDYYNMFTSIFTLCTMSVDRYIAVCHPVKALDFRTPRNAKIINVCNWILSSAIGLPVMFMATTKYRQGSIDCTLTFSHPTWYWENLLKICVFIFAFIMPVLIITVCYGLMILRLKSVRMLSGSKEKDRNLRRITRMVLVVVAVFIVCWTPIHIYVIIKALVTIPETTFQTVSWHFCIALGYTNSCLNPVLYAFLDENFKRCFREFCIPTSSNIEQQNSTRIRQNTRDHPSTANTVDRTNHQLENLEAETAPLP

The term pKi denotes the negative decadic logarithm of the Ki, by convention in mol/L.

pKi: −log10 of the molar value. Some results are limits rather than exact numbers.

`CN1c2ccc(Cl)cc2C(c2ccccc2)=NC[C@H]1CCNC(=O)c1cccs1`: the pKi was 6.12 in assay [1] and 8.18 in assay [2].

`CN1c2ccccc2C(c2ccccc2)=NC[C@@H]1CCNC(=O)c1cccs1`: the values for the pKi in assay [1] and in assay [2] were 7.20 and 9.72, respectively.

Regarding `CN1c2ccc(Cl)cc2C(c2ccccc2)=NC[C@@H]1CCNC(=O)c1cccs1`, the pKi in assay [1] was 6.35; in assay [2], 8.34.

In the case of `CN(C(=O)Cc1ccccc1)[C@H]1CC[C@@]2(CCCO2)C[C@@H]1N1CCCC1`, the negative logarithm of the Ki (pKi) is under 6.00 in assay [1], 5.73 at Mu-type opioid receptor [3], 8.72 in assay [2] and under 6.00 on Mu-type opioid receptor [4].

In assay [1], `CN1c2ccccc2C(c2ccccc2)=NCC1CCNC(=O)c1cccs1` (stereo not drawn) had a pKi of 7.03.

With `CN1c2ccccc2C(c2ccccc2)=NC[C@H]1CCNC(=O)c1cccs1`, the values for the pKi in assay [1] and in assay [2] were 6.26 and 8.61, respectively.

(Values after ChEMBL document CHEMBL1144935, “Synthesis, biological evaluation, and receptor docking simulations of 2-[(acylamino)ethyl]-1,4-benzodiazepines as kappa-opioid receptor agonists endowed with antinociceptive and antiamnesic activity” (J Med Chem, 2003).)
